Experimental findings from patent US20080287402A1, “Use of a glial attenuator to prevent amplified pain responses caused by glial priming” (published 2008) are described below.

This assay concerns amplified pain resulting from glial priming. Nature of the assay: von Frey test of referred hindpaw pain after cyclophosphamide induced cystitis in rats with prior laparotomy (glial priming). Conditions: 50 mg/kg ibudilast p.o. 2 days prior and 5 days after laparotomy, 100 mg/kg cyclophosphamide i.p. two weeks after surgery, FIG. 1.

Structures are written as SMILES.

Regarding `CC(C)C(=O)c1c(C(C)C)nn2ccccc12`, the “responses to pain in the von Frey test” value is “behaved no differently than rats that received Vehicle instead of cyclcophosphamide”.
